Patent US12403104B2, “Compounds and methods of promoting myelination” (Case Western Reserve University, priority 2016, dated 2025)

Test system: OPCs (OPC-1 derivation)
Experiment: High-throughput screening of 3,000 bioactive small molecules for MBP+ oligodendrocyte formation
Conditions: 2 μM, 72 h

| SMILES | cell viability (% relative to DMSO) [%] |
| --- | --- |
| Cl.Clc1ccc(N2CCN(Cc3c[nH]c4ncccc34)CC2)cc1 [L-745,870 hydrochloride] | 92.82 |
| Clc1ccc(C(Cn2ccnc2)OCc2c(Cl)cccc2Cl)c(Cl)c1 (centres unmarked) [Isoconazole nitrate] | 106.98 |
